# Binding of CDR-mutated scFvs to a peptide of the spike HR2 region

Values reported by Li et al. 2023, doi:10.1038/s41467-023-39022-2 (FLAb copy).

Antigen: PDVDLGDISGINAS, a 14-residue peptide of the SARS-CoV-2 spike HR2 region.

Ab-14 is the parent antibody, in scFv form: VH, then a 15-residue (Gly4Ser)3 linker, then VL. The light chain is unchanged in all variants.
VH: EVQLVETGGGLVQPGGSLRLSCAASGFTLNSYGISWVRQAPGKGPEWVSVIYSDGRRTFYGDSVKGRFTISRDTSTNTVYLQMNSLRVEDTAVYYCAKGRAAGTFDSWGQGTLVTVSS
VL: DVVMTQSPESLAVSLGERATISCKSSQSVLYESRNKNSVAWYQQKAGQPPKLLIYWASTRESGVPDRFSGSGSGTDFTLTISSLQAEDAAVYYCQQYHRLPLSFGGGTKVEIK

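Phage display of a naive human antibody library on the peptide gave the parent. The variants were designed computationally from a first round of random CDR variants and then made and measured. Several design methods are mixed in this list. Affinity was read by AlphaSeq, a pooled yeast mating assay with surface-displayed partners. Pairs that bind mate more often; barcode pairs of the diploids are counted by sequencing. The ratio of observed to expected reads was calibrated, replicate by replicate, on BCL2-family standards whose Kd was known from biolayer interferometry. There are six technical replicates.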

Variants are written as CDR1, CDR2 and CDR3 of the heavy chain (limits as in the source). Parent: GFTLNSYGIS, VIYSDGRRTFYGDSVK, GRAAGTFDS.
The read-out is the apparent dissociation constant on a log10 scale (nM): the lower, the stronger.
Replicates are averaged; those with no signal do not enter the mean.
An entry "nd" has no value in the source: the pair was not observed among the diploids in any replicate. This suggests poor binding but is not conclusive.

Result 1.94 (2 of 6 replicates), variant SFELNSYGIS, VIYSDGRRTFYIDSVK, GRTAGTFDS.
Result nd (0 of 6 replicates), variant GFKIDEYGIS, VIYADGHRTQYSEQVK, GVNMGFLVE.
Result nd (0 of 6 replicates), variant GFSLNEYGIS, VIYSDGRRTFYSDSVK, GRLAGTFDS.
Result -0.39 (6 of 6 replicates), variant GFDLNEYGIS, VIYADGRRTQYIDSVK, GEIAGTFDA.
Result -0.64 (6 of 6 replicates), variant GFDLNEYGIS, VIYADGRRTFYADSVK, GEVAGTFKF.
Result 0.99 (6 of 6 replicates), variant GFDLNSYGIS, VIYSDGRRTFYDDMVK, GRTAGTFDS.
Result 2.37 (2 of 6 replicates), variant GFTLNTYGIS, VIYADGRRTFYTDSVK, GRAAGTFRL.
Result -0.26 (4 of 6 replicates), variant GFTLNSYGIS, VIYSDGHRTFYDDSVK, GQEAGTFDS.
Result 0.03 (6 of 6 replicates), variant GFDLEDYGIS, VIYADGQRTAYSDSVK, GENAGTFDV.
Result -0.24 (6 of 6 replicates), variant GFTLNEYGIS, VIYSDGRRTFYTDSVK, GREAGTFDM.
Result 0.31 (6 of 6 replicates), variant GFTLNQYGIS, VIYSDGRRTFYSDSVK, GQAAGTFDS.
Result 1.82 (2 of 6 replicates), variant GFDLEKYGIS, VIYADGQRVSYDSSVK, GENAGYFMD.
Result -0.57 (6 of 6 replicates), variant GFDLNEYGIS, VIYADGMRTAYVDSVK, GKNAGTFDV.
Result 1.41 (1 of 6 replicates), variant GKSLDEYGIS, VIYADGLRSVYANNVK, GQFDDAMDL.
Result nd (0 of 6 replicates), variant GFSLNSYGIS, VIYSDGRRTFYADDVK, GNAAGTFDS.
Result -1.19 (6 of 6 replicates), variant GFDLDEYGIS, VIYADGKRTAYADSVK, GQTAGTFDV.
Result -0.12 (6 of 6 replicates), variant GFELNSYGIS, VIYSDGRRTFYADSVK, GKEAGTFDS.
Result 1.13 (6 of 6 replicates), variant GFVLNEYGIS, VIYSDGRRTFYGDSVK, GQAAGTFDK.
Result nd (0 of 6 replicates), variant GFTYNSYGIS, VIYSDGRRTFYGDKVK, GRAAGTFDH.
Result -0.67 (5 of 6 replicates), variant GFDLDEYGIS, VIYADGKRTAYSDSVK, GNVAGTFDM.
Result nd (0 of 6 replicates), variant GNNLDEYGIS, VIYADGQRTYYAEDVK, GKTGDTAFI.
Result -0.24 (6 of 6 replicates), variant GFELNSYGIS, VIYADGRRVFYGDSVK, GRAAGTFES.
Result -0.37 (6 of 6 replicates), variant GFTLEQYGIS, VIYADGRRTFYGDSVK, GRAAGTFDS.
Result -1.20 (6 of 6 replicates), variant GFDLNEYGIS, VIYADGKRTAYSDSVK, GNEAGTFDM.
Result 1.04 (6 of 6 replicates), variant GFVLNSYGIS, VIYSDGRRTFYADSVK, GKVAGTFDS.
Result 2.56 (4 of 6 replicates), variant GFTLFSYGIS, VIYADGRRTFYGDSVK, GRAAGTFDS.
Result -0.55 (6 of 6 replicates), variant GFDLNEYGIS, VIYADGRRTAYSDSVK, GTNAGTFDV.
Result 1.67 (1 of 6 replicates), variant GFGLMDYGIS, VIYADGMRRSYANSFK, GAHAGTFDF.
Result -0.79 (6 of 6 replicates), variant GFDLDEYGIS, VIYADGRRTFYSDSVK, GETAGTFDS.
Result 0.58 (4 of 6 replicates), variant GFQLNDYGIS, VIYSDGRRTFYHDSVK, GRTAGTFDS.
Result nd (0 of 6 replicates), variant GFDLNEYGIS, VIYADGRRQAVVENVK, GKINVVDSV.
Result 0.52 (6 of 6 replicates), variant GFELNSYGIS, VIYSDGRRTFYQDSVK, GRTAGTFDT.
Result -0.31 (6 of 6 replicates), variant GFDLNEYGIS, VIYADGMRTAYADDVK, GKNAGTFDV.
Result 1.65 (4 of 6 replicates), variant GFTLNSYGIS, VIYSDGRRTFYGDKVK, GRTAGTFDS.
Result -0.41 (6 of 6 replicates), variant GFDLEEYGIS, VIYADGKRTAYADSVK, GNVAGTFDT.
Result -0.29 (6 of 6 replicates), variant GFDLNSYGIS, VIYSDGRRTVYGDSVK, GKTAGTFDS.
Result 0.44 (6 of 6 replicates), variant GFSINSYGIS, VIYSDGRRTFYSDSVK, GQAAGTFDS.
Result -0.40 (5 of 6 replicates), variant GFDLDEYGIS, VIYADGQRTAYTDSVK, GGNAGTFDV.
Result -0.57 (6 of 6 replicates), variant GFDLNEYGIS, VIYADGSRTAYTDSVK, GNVAGTFDI.
Result -0.10 (6 of 6 replicates), variant GFDLNEYGIS, VIYADGRRTAYIDSVK, GHAAGTFDQ.
Result 1.30 (1 of 6 replicates), variant GFDLNSYGIS, VIYSDGRRTFYGDAVK, GQTAGTFDQ.
Result 1.52 (2 of 6 replicates), variant GFSLESYGIS, VIYSDGRRTFYLDSVK, GRAAGTFDS.
Result nd (0 of 6 replicates), variant GNTLNSYGIS, VIYSDGRRTFYGDSVK, GTAAGTFLS.
Result 0.99 (6 of 6 replicates), variant GFTLNSYGIS, VIYSDGRRTFYDDKVK, GQLAGTFDS.
Result 1.93 (1 of 6 replicates), variant GFGLNSYGIS, VIYSDGRRTFYGDSVK, GRAAGTFKS.
Result 0.04 (6 of 6 replicates), variant GFTLNQYGIS, VIYSDGRRTFYSDSVK, GDAAGTFDS.
Result 1.68 (1 of 6 replicates), variant GITLNSYGIS, VIYSDGRRTFYGDSVK, GRAAGTFDQ.
Result -0.71 (6 of 6 replicates), variant GFDLNEYGIS, VIYADGMRTAYTDSVK, GHAAGTFDL.
Result 0.56 (6 of 6 replicates), variant GFTLNSYGIS, VIYADGRRTFYGDSVK, GHAAGTFDF.
Result 1.27 (1 of 6 replicates), variant GFQLNEYGIS, VIYSDGRRTFYGDSVK, GRTAGTFIS.

From the list, the first 4 with no signal in any replicate:

CDR-H1	CDR-H2	CDR-H3	mean, log10 nM	seen in
GFKIDEYGIS	VIYADGHRTQYSEQVK	GVNMGFLVE	nd	0 of 6
GFSLNEYGIS	VIYSDGRRTFYSDSVK	GRLAGTFDS	nd	0 of 6
GFSLNSYGIS	VIYSDGRRTFYADDVK	GNAAGTFDS	nd	0 of 6
GFTYNSYGIS	VIYSDGRRTFYGDKVK	GRAAGTFDH	nd	0 of 6

Of ten entries with the parent sequence, four were seen in most replicates (averages 0.34 to 2.37), three in one and three in none, so single entries are noisy.
The range of this assay differs from that of the first round, and the authors advise against merging the two.
Background: pairings of all heavy chain designs with three empty control strains gave a value in 1% of cases (median 2.08, 5th percentile 0.84). Values in that range, when seen in few replicates, are hard to tell from nonspecific mating.
The authors averaged sequences with at least three values out of six and counted those with two or fewer as poor binders.